Test: pKa of acidic compound in water
From the text: If polyfunctional acids are used, it is sufficient for at least one of the pKa values, preferably the pKa1 of the polyfunctional acid used, to lie within the aforementioned ranges.

SMILES: O=C(O)CCC(=O)O [succinic acid]
- pKa: 4.19
